Biological target: mannose-6-phosphate (M6P) receptor on human cells (Fabry patient skin fibroblasts, HUVECs) (human), P11717
Assay: cell-based or functional assay

Chains of the proteins cited; added tags and fusions are not shown. Lines headed by an entry give the natural chain unless they say otherwise; changes in a name come on top. Residues count along the entry.
mannose-6-phosphate (M6P) receptor on human cells (Fabry patient skin fibroblasts, HUVECs) (human), P11717, UniProt P11717, 41-2491: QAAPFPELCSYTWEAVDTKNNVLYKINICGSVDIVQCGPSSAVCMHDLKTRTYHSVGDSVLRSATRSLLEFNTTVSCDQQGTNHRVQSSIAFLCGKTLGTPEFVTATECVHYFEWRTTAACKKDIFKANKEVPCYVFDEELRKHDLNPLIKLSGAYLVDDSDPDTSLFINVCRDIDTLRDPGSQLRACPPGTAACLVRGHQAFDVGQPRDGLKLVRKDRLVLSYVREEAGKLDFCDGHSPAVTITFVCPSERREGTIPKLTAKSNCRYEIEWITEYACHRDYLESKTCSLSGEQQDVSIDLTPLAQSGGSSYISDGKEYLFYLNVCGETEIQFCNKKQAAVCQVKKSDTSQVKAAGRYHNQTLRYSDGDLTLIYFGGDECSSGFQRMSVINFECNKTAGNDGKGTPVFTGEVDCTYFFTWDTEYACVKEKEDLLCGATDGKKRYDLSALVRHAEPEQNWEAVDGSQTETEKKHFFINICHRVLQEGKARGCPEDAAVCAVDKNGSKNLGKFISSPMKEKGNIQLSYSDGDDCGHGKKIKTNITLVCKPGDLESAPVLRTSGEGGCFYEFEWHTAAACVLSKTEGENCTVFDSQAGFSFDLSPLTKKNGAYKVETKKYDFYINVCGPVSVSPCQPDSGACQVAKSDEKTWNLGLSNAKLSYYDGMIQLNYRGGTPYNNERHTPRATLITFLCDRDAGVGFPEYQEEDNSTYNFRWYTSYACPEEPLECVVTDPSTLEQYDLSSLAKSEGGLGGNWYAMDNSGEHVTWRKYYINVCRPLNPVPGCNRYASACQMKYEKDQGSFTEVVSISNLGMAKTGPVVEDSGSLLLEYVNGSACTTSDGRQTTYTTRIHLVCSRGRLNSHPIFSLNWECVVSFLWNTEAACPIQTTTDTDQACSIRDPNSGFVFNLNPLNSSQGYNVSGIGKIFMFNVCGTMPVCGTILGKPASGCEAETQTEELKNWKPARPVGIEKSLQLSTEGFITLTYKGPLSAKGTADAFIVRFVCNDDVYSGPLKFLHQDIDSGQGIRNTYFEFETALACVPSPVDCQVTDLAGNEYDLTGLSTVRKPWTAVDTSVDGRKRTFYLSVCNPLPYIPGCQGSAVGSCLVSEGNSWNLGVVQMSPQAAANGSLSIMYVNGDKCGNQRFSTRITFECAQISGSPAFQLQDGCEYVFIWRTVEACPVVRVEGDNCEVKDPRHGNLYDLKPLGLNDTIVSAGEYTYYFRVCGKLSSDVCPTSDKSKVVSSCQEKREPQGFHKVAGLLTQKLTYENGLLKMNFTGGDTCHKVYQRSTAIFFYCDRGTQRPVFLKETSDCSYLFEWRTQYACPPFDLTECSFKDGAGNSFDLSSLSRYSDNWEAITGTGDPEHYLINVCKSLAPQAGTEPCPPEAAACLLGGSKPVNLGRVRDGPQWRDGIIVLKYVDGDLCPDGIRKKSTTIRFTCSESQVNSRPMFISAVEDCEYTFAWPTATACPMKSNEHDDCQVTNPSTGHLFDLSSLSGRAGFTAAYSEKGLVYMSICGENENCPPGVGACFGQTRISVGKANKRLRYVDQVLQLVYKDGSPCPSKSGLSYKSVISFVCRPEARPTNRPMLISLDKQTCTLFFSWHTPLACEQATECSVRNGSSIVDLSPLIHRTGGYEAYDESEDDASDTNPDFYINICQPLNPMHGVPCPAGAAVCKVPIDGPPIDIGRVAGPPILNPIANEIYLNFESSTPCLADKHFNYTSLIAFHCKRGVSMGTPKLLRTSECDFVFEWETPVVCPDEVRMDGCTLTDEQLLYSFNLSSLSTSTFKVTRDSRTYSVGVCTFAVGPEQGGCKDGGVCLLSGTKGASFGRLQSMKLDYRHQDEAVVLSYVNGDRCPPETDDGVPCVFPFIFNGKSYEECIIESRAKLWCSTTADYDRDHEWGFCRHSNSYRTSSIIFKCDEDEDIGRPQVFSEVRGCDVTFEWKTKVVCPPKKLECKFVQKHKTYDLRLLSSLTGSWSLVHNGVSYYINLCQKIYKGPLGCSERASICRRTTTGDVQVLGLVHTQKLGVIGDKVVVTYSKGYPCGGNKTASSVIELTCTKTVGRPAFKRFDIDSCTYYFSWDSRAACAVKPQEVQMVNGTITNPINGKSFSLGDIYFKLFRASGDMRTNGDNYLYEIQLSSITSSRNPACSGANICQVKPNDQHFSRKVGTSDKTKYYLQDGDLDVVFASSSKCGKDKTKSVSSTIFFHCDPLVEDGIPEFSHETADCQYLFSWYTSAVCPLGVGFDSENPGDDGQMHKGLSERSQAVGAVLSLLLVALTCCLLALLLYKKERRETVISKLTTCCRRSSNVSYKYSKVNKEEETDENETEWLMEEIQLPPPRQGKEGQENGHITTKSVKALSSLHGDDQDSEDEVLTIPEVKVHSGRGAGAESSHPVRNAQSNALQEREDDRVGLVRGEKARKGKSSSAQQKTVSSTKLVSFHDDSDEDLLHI

intracellular α-Gal A activity in Fabry fibroblasts co-cultured with BRS-11 insert + M6P, Day 1 (units/mg total protein): 4
intracellular α-Gal A activity in Fabry fibroblasts co-cultured with BRS-11 insert + M6P, Day 2 (units/mg total protein): 6
intracellular α-Gal A activity in Fabry fibroblasts co-cultured with BRS-11 insert + M6P, Day 3 (units/mg total protein): 9
intracellular α-Gal A activity in Fabry fibroblasts co-cultured with BRS-11 insert, Day 1 (units/mg total protein): 13
intracellular α-Gal A activity in Fabry fibroblasts co-cultured with BRS-11 insert, Day 2 (units/mg total protein): 40
intracellular α-Gal A activity in Fabry fibroblasts co-cultured with BRS-11 insert, Day 3 (units/mg total protein): 85
intracellular α-Gal A enzyme level in HUVECs cultured overnight with 7500 units of α-Gal A, against control cells: 10 fold
B1: human α-galactosidase A (α-Gal A), purified from or secreted by stably transfected human fibroblasts (pXAG-16; e.g. strain BRS-11), P06280 32-429 (enzyme)
chain: LDNGLARTPTMGWLHWERFMCNLDCQEEPDSCISEKLFMEMAELMVSEGWKDAGYEYLCIDDCWMAPQRDSEGRLQADPQRFPHGIRQLANYVHSKGLKLGIYADVGNKTCAGFPGSFGYYDIDAQTFADWGVDLLKFDGCYCDSLENLADGYKHMSLALNRTGRSIVYSCEWPLYMWPFQKPNYTEIRQYCNHWRNFADIDDSWKSIKSILDWTSFNQERIVDVAGPGGWNDPDMLVIGNFGLSWNQQVTQMALWAIMAAPLFMSNDLRHISPQAKALLQDKDVIAINQDPLGKQGYQLRQGDNFEVWERPLSGLAWAVAMINRQEIGGPRSYTIAVASLGKGVACNPACFITQLLPVKRKLGFYEWTSRLRSHINPTGTVLLQLENTMQMSLKDLL
modifications: here or on the partner: N-linked oligosaccharides bearing sialic acid and mannose-6-phosphate (M6P) residues; sites not numbered
